Here are results for one protein from PMC10908090.

Holding throughout (conditions): glycan lost; control: WT STING
A short description of series [1]: immunofluorescence with calnexin/GM130, ISD stimulation.
The nature of series [2]: STING IP, K27-Ub immunoblot, HEK-293T.
Series [3] can be described thus: STING IP, K63-Ub immunoblot, HEK-293T.
A short description of series [4]: native gel electrophoresis, cGAMP-induced.

B1: STING: T229A (protein)
parent chain: MPHSSLHPSIPCPRGHGAQKAALVLLSACLVTLWGLGEPPEHTLRYLVLHLASLQLGLLLNGVCSLAEELRHIHSRYRGSYWRTVRACLGCPLRRGALLLLSIYFYYSLPNAVGPPFTWMLALLGLSQALNILLGLKGLAPAEISAVCEKGNFNVAHGLAWSYYIGYLRLILPELQARIRTYNQHYNNLLRGAVSQRLYILLPLDCGVPDNLSMADPNIRFLDKLPQQTGDHAGIKDRVYSNSIYELLENGQRAGTCVLEYATPLQTLFAMSQYSQAGFSREDRLEQAKLFCRTLEDILADAPESQNNCRLIAYQEPADDSSFSLSQEVLRHLRQEEKEEVTVGSLKTSAVPSTSTMSQEPELLISGMEKPLPLRTDFS
Turning to B1, in series [1], the localisation_or_trafficking entry is on record as “abolishes”. For the same protein, the “other: K27-linked ubiquitination” value in series [2] is “no change”. In series [3], the “other: K63-linked ubiquitination” value is on record as “decreases”. The oligomerisation entry in series [4] is listed as “abolishes”.
